The results in this text go back to patent US4169096A, “Antibiotic compounds” (priority 1977, dated 1979).

Converted amounts (≈) assume the structure as drawn. Counter-ions that a name gives are not always drawn. Like-named read-outs stand apart in the source and are kept apart here.

The test system of assay [1] is Bacteroides fragilis A20926. Nature of the assay: microbe, parasite or virus in culture.
The subject of another assay is B. fragilis A20926. The assay is described as follows: Localized infection with B. fragilis in mice. To be noted: Bacteroides fragilis, once daily for 5 days, log-probit plot. It counts as in vivo.
Where [2] appears, read: A20926, 144 h, oral, read-out: po PD50.
[3] abbreviates: A20926, sc, 144 h, subcutaneous, read-out: sc PD50.

Turning to `COC(=O)C1C(C)OC2(C)CC(=O)C3OC12OC(C(C)/C=C(C)/C=C/C(=O)C1=C(O)CN(C)C1=O)C3C` (stereo not drawn) [Bu-2313A], in assay [1], the MIC was 0.2 mg/L (≈ 0.386 µM).
In the case of `COC(=O)C1C(C)OC2(C)CC(=O)C3OC12OC(C(C)/C=C(C)/C=C/C(=O)C1=C(O)CNC1=O)C3C` (stereo not drawn) [Bu-2313B (Na salt)], the results for the ED50 with B. fragilis A20926 (setting [2]) and with B. fragilis A20926 (setting [3]) were roughly 220 mg/kg and 60 mg/kg, respectively.
The molecule `CCC[C@@H]1C[C@@H](C(=O)N[C@@H]([C@H]2O[C@H](SC)[C@H](O)[C@@H](O)[C@H]2O)[C@H](C)Cl)N(C)C1` [Clindamycin] gave an MIC in assay [1] of 0.05 mg/L (≈ 0.118 µM).
In the case of `Cc1ncc([N+](=O)[O-])n1CCO` [Flagyl], the ED50 with B. fragilis A20926 (setting [2]) was found to be 50 mg/kg; with B. fragilis A20926 (setting [3]), 35 mg/kg.
